Patent publication US20260274895A1, “DE NOVO DESIGNED MEMBRANE-TRAVERSING AND ORALLY BIOAVAILABLE MACROCYCLES” (UNIVERSITY OF WASHINGTON, priority 2022, published 2026)

Experiment: Parallel artificial membrane permeability assay (PAMPA)
Details: average of three replicates; 16-20 hours incubation, 5% DMSO PBS

## Plf*FP*ll*G [Design D8.15]
  PAMPA_Papp_Avg (apparent permeability): 0.768 ×10⁻⁶ cm/s

## PpA*L*lIvP [Design D8.28]
  PAMPA_Papp_Avg (apparent permeability): 0.71 ×10⁻⁶ cm/s
